TSG101-PTAP inh – qHTS Assay for Iinhibitors of HIV-1 Budding by Blocking the Interaction of PTAP/TSG101 | Potency, µM (series often up to 115 µM), for the others: at the highest dose activity change, negative = inhibition, usual class: inhibitors | Tumor susceptibility gene 101 protein (Homo sapiens), Q99816 | Fluorescence polarization, FITC-PTAP peptide / Tsg101 binding | AID 493005, 2010 | 340,000 tested, under 10 active; active = well fitted inhibition curve with a large enough effect in the main read-out, with a control signal flat, not every such curve was filed as active; inconclusive = small, poorly fitted or top-dose-only effect, or effect the other way, or a change in a side signal; inactive = no such curve, though single readings can be large or run the other way; also: % of control where 0% means no effect
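Tsg101 binding domain (10 uM final) was mixed with compound and a FITC-labeled PTAP peptide (50 nM final) in HEPES pH 7.5 buffer with NaCl, Tween 20, EDTA and TCEP; fluorescence polarization was read after 20 min at r.t.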
Rango dissoc inh – qHTS Assay for Inhibitors of RanGTP induced Rango (Ran-regulated importin-beta cargo) - Importin beta complex dissociation | Snurportin-1 (Homo sapiens) + GTP-binding nuclear protein Ran (Homo sapiens) + Importin … | Biochemical FRET Rango-importin beta, RanGTP-induced dissociation | Potency, µM (top dose mostly 46.1 µM), without a hit: top-dose activity change, negative = inhibition | hit rate 0.071% among 340,000 | AID 540253, 2011; calls by dose curve; also: % of control where 0% means no effect; nearly all actives have a fitted effect of over 45% in size
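FRET read at 45 min, room temperature: inhibitors block the CFP/YFP signal rise when RanGTP (0.6 uM Ran, 2 mM GTP, 0.2 uM RCC1) frees Rango (0.1 uM) from importin beta (0.25 uM). Pre-read after 5 min compound exposure flags interference.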
Rango complex inh – qHTS Assay for Inhibitors of Rango (Ran-regulated importin-beta cargo) - Importin beta complex formation; Importin subunit beta-1 (Homo sapiens), Q14974; Rango CFP/YFP FRET sensor + importin beta, 45 min; Potency, µM (highest dose often 92.2 µM), inactives show at the highest dose inhibition of complex formation; hit rate 0.031% among 340,000; AID 540263, 2011; calls by dose curve;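 also: 0% = DMSO wells and 100% = buffer wells lacking importin beta; nearly all actives have a fitted effect of over 15% in size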
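Inhibition scored from the CFP 486 nm/YFP 530 nm FRET ratio 45 min after adding 0.125 microM importin beta to 50 nM Rango biosensor preincubated 5 min with compound (room temperature, PBS with DTT, Tween-20, BSA). No-importin wells as positive control.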
TDP1 block – qHTS Assay for Inhibitors of Tyrosyl-DNA Phosphodiesterase (TDP1). recombinant TDP1, AlphaScreen DNA substrate cleavage. Potency, µM (titrated, usually from 130 µM), inactives show at the highest dose activity change, negative = inhibition, actives largely listed as inhibitors. hit rate 0.28% among 350,000; also: % is scaled to controls: 0 for no effect and ±100 for the full control effect; nearly all actives have a fitted effect of over 40% in size
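E. coli-derived human Tdp1, 1 nM final. Cpd preinc 15 min RT; substrate 15 nM final, 5 min RT; AS bead mix 10 ug/ml final, 10 min RT. Signal loss = tyrosine-FITC cleavage. No-enzyme wells = max signal.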
ClpP mod – qHTS Assay for Activators of ClpP | ATP-dependent Clp protease proteolytic subunit (Bacillus subtilis (strain 168)), P80244 | purified B. subtilis ClpP, FRET peptide cleavage, 20 min | Potency, µM (doses to about 57.5 µM), for inactives: at the top dose activity change, negative = active | hit rate 1.9% among 340,000 | AID 651965, 2013; active = well fitted falling curve with a large enough effect; inconclusive = small, poorly fitted or top-dose-only effect; inactive = no such curve, though single readings can be large or run the other way; also: the source files actives as falling curves though it sought activators and does not explain the sign; nearly all actives have a fitted effect of over 65% in size
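Purified B. subtilis ClpP, 10 microg/mL final in Tris/HCl pH8 with KCl, BSA, glycerol and Tween-20, cleaved an Abz/nitrotyrosine-quenched decapeptide. Fluorescence (ex 320, em 430) was read at 0 and 20 min at room temperature. Delta was normalized to 5.8 microM ADEP and DMSO/no-enzyme controls.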
ALOX12 inh – Primary qHTS assay for inhibitors of human arachidonate 12S-lipoxygenase (ALOX12): Round 2; AID 1671190, 2021; Polyunsaturated fatty acid lipoxygenase ALOX12 (Homo sapiens), P18054; purified 12hLO, xylenol orange hydroperoxide absorbance; Potency, µM (doses to about 108 µM), for the others: at the highest dose activity change, negative = inhibition, most hits filed as inhibitors; hit rate 1.1% among 580,000; also: % is scaled to controls: 0 for no effect and ±100 for the full control effect
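Hydroperoxide product was detected by ferrous iron/xylenol orange as the 573 to 405 nm absorbance ratio. Arachidonic acid at 40 uM (final) was turned over for 30 min at room temperature by 150 nM human 12hLO, pH 7.0 Hepes buffer, after 15 min compound preincubation.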
* marks the source's active call; other numbers are inactive results; ? = inconclusive; · = not tested or not shown; [ ] = dose if it differs, or a comment. Hits are enriched below; roughly 2.4% of the tested compounds scored in any of these assays. Unless noted, calls follow the shape of the dose curve; as a rule, active = well fitted curve in the direction sought with a large enough effect; inconclusive = small, poorly fitted or top-dose-only effect, or another doubt; inactive = no such curve, though single readings can be large; an effect the other way counts as inactive or inconclusive. Potency is read from the fitted curve at half-maximal effect.

Chains of the proteins cited; added tags and fusions are not shown.
Importin subunit beta-1 (Homo sapiens), Q14974, UniProt Q14974, whole entry, looked up: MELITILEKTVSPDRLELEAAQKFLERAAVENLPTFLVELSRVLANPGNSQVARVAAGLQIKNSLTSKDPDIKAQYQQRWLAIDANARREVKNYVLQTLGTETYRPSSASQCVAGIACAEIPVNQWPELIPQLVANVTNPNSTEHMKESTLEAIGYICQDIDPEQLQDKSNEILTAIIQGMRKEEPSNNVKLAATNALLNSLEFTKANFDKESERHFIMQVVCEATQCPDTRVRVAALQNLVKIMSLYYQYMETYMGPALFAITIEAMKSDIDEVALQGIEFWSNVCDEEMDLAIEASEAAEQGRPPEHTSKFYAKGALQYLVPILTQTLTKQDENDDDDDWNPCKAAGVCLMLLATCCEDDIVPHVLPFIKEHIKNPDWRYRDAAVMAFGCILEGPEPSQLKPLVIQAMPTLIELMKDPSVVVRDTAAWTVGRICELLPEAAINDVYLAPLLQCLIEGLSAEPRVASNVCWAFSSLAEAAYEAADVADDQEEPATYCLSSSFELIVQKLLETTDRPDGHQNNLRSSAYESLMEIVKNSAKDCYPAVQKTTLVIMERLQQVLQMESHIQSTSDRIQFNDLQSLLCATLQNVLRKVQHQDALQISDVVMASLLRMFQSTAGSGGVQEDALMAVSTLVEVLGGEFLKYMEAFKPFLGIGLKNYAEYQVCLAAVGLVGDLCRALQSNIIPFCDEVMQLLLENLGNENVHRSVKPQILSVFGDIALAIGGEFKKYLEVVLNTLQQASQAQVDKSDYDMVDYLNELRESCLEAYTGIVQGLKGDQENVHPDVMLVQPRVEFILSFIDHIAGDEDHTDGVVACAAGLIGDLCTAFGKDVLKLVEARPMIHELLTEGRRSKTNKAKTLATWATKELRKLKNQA
ATP-dependent Clp protease proteolytic subunit (Bacillus subtilis (strain 168)), P80244, UniProt P80244, whole entry, looked up: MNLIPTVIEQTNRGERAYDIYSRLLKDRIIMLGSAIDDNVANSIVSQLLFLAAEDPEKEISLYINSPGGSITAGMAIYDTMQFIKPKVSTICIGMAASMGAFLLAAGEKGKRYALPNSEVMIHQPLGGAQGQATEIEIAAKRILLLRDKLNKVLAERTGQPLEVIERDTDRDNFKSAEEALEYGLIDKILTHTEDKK

no.	compound	TSG101-PTAP inh	Rango dissoc inh	Rango complex inh
1	Fc1ccc(CNc2nc(-c3ccco3)cc(C(F)(F)F)n2)cc1	-4%	-1%	-2%
2	CN(Cc1ccccc1)c1nc(-c2ccc(F)cc2)cc(C(F)(F)F)n1	·	·	·
3	Fc1ccc(-c2cc(C(F)(F)F)nc(NCc3ccccc3)n2)cc1	·	·	·
4	FC(F)(F)c1cc(-c2ccco2)nc(NCc2ccccc2)n1	-7%	-15%	-3%
5	COc1cc2c(s1)c1cnn(Cc3ccccc3F)c(=O)c1n2C	·	·	·
6	COC(=O)Nc1ccc2ccccc2c1	·	·	·
7	CN1C[C@@H](NC(=O)c2cccs2)C[C@H]1c1nc(-c2ccccn2)no1	·	·	·
8	COc1ccc(N2CC(c3noc(-c4ccc(C)c(C)c4)n3)CC2=O)cc1 (stereo not drawn)	·	·	·

no.	TDP1 block	ClpP mod	ALOX12 inh
1	-3%	25µM*	-9%
2	22µM*	5%	-9%
3	6%	22µM*	-18%
4	-5%	?	?
5	0%	·	·
6	·	·	5%
7	·	·	73%[176 µM]
8	·	·	27%

Going on with the list:
no.	compound	TSG101-PTAP inh	Rango dissoc inh	Rango complex inh
9	CC(C)n1cc(CN2CCC(Oc3ccc(C(=O)N4CCCCC4)cc3)CC2)cn1	·	-18%	0%
10	Cn1cc(CN2CCC(Oc3ccc(C(=O)N4CCCCC4)cc3)CC2)cn1	0%	-16%	0%
11	Cc1ccc(-c2ccc3nnc(CNC(=O)c4nccc5ccccc45)n3n2)cc1	·	·	·
12	CCOC(=O)/C=C1\NC(C)(C)Cc2cc(OC)c(O)cc21	-6%	-8%	-5%
13	COc1cc2c(cc1OC)/C(=C/C(=O)N1CCOCC1)NC(C)(C)C2	-3%	-25%	?
14	CC(=NNC(=S)N1CCCC1)c1ccccn1	·	·	·
15	CC(=NNC(=S)N1CCC1)c1ccccn1	-1%	-15%	1%
16	CC(=NNC(=S)SCc1ccccc1)c1ccccn1	-1%	-22%	?

no.	TDP1 block	ClpP mod	ALOX12 inh
9	2%	22µM*	-12%
10	1%[56.1 µM]	-2%	0%
11	·	·	52%
12	10%	-1%	-14%
13	-10%	13µM*	?
14	·	-7%	18µM*
15	·	-21%	50µM*
16	·	1%	?

Later entries.
no.	compound	TSG101-PTAP inh	Rango dissoc inh	Rango complex inh
17	COc1c(CNCC(O)COc2cccc(C)c2)c(C)nn1C (stereo not drawn)	·	·	·
18	Cc1c(CN2CCN(C(=O)C(C)C)CC2)sc2c(N3CCOCC3)nc(-c3cnc(N)nc3)nc12	·	·	·
19	Cc1[nH]c2ccccc2c1C(c1ccc(O)cc1)c1c(C)[nH]c2ccccc12	·	·	·
20	Cc1[nH]c2ccccc2c1C(c1ccccc1)c1ccc(Cl)s1 (stereo not drawn)	·	·	·
21	Cc1ccc(NC(=O)C(C)OC(=O)c2ccc(Cl)nc2)cc1S(=O)(=O)N1CCOCC1 (stereo not drawn)	0%	-7%	0%
22	O=C(O)c1ccc(S(=O)(=O)N2CCC3(CC2)CC(=O)c2ccccc2O3)cc1	-1%	-2%	-1%
23	O=C1CC2(CCN(C(=O)COc3ccccc3)CC2)Oc2ccccc21	-3%	-2%	-1%
24	CC(Oc1ccccc1)C(=O)N1CCC2(CC1)CC(=O)c1ccccc1O2 (stereo not drawn)	-1%	-2%	-1%

no.	TDP1 block	ClpP mod	ALOX12 inh
17	·	·	6%
18	·	·	-26%[57.4 µM]
19	·	·	14µM*
20	6%	-5%	-14%
21	·	28µM*	-24%
22	-1%	32µM*	-1%
23	0%	·	-9%
24	-12%[0.505 µM]	25µM*	2%

New compounds follow:
no.	compound	TSG101-PTAP inh	Rango dissoc inh	Rango complex inh
25	Cc1cccc(CC(=O)N2CCCCC2c2nc(C3CC3)n[nH]2)c1 (stereo not drawn)	·	·	·
26	NC(=S)N/N=C1\CC(c2ccc3c(c2)OCCCO3)Oc2ccc(F)cc21 (stereo not drawn)	-5%	13%	1%
27	O=C1CC(c2ccc3c(c2)OCCO3)Oc2ccccc21 (stereo not drawn)	-5%	7%	-4%
28	CCn1nccc1C(=O)N1CCc2nc(OCCOC)ccc2C1	·	·	·
29	Oc1ccc(-c2cn3cc(C(F)(F)F)ccc3n2)cc1	-10%	0%	0%
30	Clc1ccc(-c2cn3cc(Cl)ccc3n2)cc1	-4%	-5%	?
31	Cc1cc(C)nc(N2CCCC(C(=O)NCCc3ccc(F)cc3)C2)n1 (stereo not drawn)	-8%	4%	1%
32	O=C(NC12CC3CC(CC(C3)C1)C2)c1ccc(-c2ccc(Cl)cc2)o1	-1%	-4%	-3%

no.	TDP1 block	ClpP mod	ALOX12 inh
25	·	·	34%
26	·	·	6.3µM*
27	0%	1%	0%
28	·	·	43%
29	1%	28µM*	2%
30	·	?	23%
31	6%	11µM*	16%
32	3%	32µM*	-14%

Other structures follow.
no.	compound	TSG101-PTAP inh	Rango dissoc inh	Rango complex inh
33	O=C(NC12CC3CC(CC(C3)C1)C2)c1ccc(-c2cccc(Cl)c2)o1	1%	-9%	-1%
34	C/C(=N\Nc1ccc(F)cc1F)c1ccc(Br)s1	-3%	-3%	0%
35	COCC(C)NCc1ccccc1C (stereo not drawn)	-3%	21%	18µM*
36	Cc1ccc2occ(CC(=O)Nc3c(C(=O)Nc4ccc(Cl)cc4)oc4ccccc34)c2c1	·	·	·
37	CCc1ccc2occ(CC(=O)Nc3c(C(=O)Nc4ccc(C)cc4)oc4ccccc34)c2c1	·	·	·
38	CCc1ccc2occ(CC(=O)Nc3c(C(=O)c4ccccc4)oc4ccccc34)c2c1	·	·	·
39	Cc1noc(-c2cn(C3CCCN(C(=O)c4ccc5c(c4)OCO5)C3)nn2)n1 (stereo not drawn)	·	·	·
40	CCOC(=O)Cc1cc(=O)n(-c2nc3ccccc3s2)[nH]1	2%	1%	-7%

no.	TDP1 block	ClpP mod	ALOX12 inh
33	3%	?	?
34	8%	·	32µM*
35	7%	5%	?
36	-5%	18µM*	3%
37	1%	261%	-1%
38	-5%	22µM*	2%
39	·	·	8%
40	11%	-2%	7.9µM*

A second format for 3 compounds above:
[33] O=C(NC12CC3CC(CC(C3)C1)C2)c1ccc(-c2cccc(Cl)c2)o1
[35] COCC(C)NCc1ccccc1C (stereo not drawn)
[37] CCc1ccc2occ(CC(=O)Nc3c(C(=O)Nc4ccc(C)cc4)oc4ccccc34)c2c1
entry no.	33	35	37
TSG101-PTAP inh	1%	-3%	·
Rango dissoc inh	-9%	21%	·
Rango complex inh	-1%	18µM*	·
TDP1 block	3%	7%	1%
ClpP mod	?	5%	261%
ALOX12 inh	?	?	-1%

Other results follow:
no.	compound	TSG101-PTAP inh	Rango dissoc inh	Rango complex inh
41	Cc1ccc(-c2cnc(CCC(=O)N3CCN(c4ccc([N+](=O)[O-])cc4)CC3)o2)cc1C	·	·	·
42	COc1ccc(CNCc2cn(-c3cccc(F)c3)nc2-c2ccc(C)o2)cc1	-8%	?	?
43	CCOC(=O)c1sc2nc(CSc3ccccc3)nc(N3CCCN(C)CC3)c2c1C	-2%	15%	-1%
44	CCOC(=O)c1sc2nc(CSc3ccccc3)nc(N3CCC(C(N)=O)CC3)c2c1C	3%	-9%	-3%
45	O=C1c2ccccc2-c2onc3ccc(NCc4ccco4)c1c23	?	?	?
46	COC(=O)c1ccn(C(=O)c2ccc(Cl)cc2)n1	0%	-20%	?

no.	TDP1 block	ClpP mod	ALOX12 inh
41	·	·	5%
42	5%	4%	45µM*
43	8%	-9%	5.6µM*
44	4%	·	-23%
45	79µM*	1%	·
46	0%	28µM*	-21%

From PubChem BioAssay
